US8263079B2, “Antibodies against CSF-1R” (ImClone, LLC, priority 2010, dated 2012)

System: HCC-1954 breast cells
Experiment: Breast tumor combination studies, HCC-1954 xenograft
Format: in vivo, mouse
Conditions: 40 mpk Herceptin + 40 mpk Rat IgG, TIW, vs Human IgG + Rat IgG control, P<0.0001
Excerpt: Inject Nu/nu mice (female, 7-8 weeks of age) subcutaneously with 1×10^7 HCC-1954 breast cells/mouse and allow tumors to reach 300 mm^3 before treatment. Randomize mice into groups of 12 and treat as follows:
Measure tumor volumes and calculate the T/C % for each treatment group as the ratio of the relative tumor volumes versus the control group. Analyze tumor volumes using RM ANOVA.

Herceptin ®: anti-neoplastic agent; tumor-targeting agent given in combination
% T/C: 46%
